Experimental data: publication PMC9624268 (Translational Vision Science & Technology, 2022)
Read-outs that look alike come from different tables or passages of the source.

Tests used:
[1] = format: in vivo; details: Dutch Belted, rabbit, po, 15 mg/kg
[2] = molecular target: factor D; details: read-out: KD, binding to factor D; cited from earlier work

CC(=O)c1nn(CC(=O)N2C[C@H](F)C[C@H]2C(=O)Nc2cccc(Br)n2)c2ccc(-c3cnc(C)nc3)cc12 [Danicopan]
Tmax ([1]; neural retina): 1 h | Tmax ([1]; plasma): 1 h | Kd [2]: 0.54 nM
